The species entered for this assay is Homo sapiens. The assay can be described thus: Selectivity ratio of IC50 for human full-length recombinant HDAC1 expressed in baculovirus infected Sf9 insect cells to IC50 for human full-length recombinant HDAC6 expressed in baculovirus infected Sf9 insect cells.

Consider `COc1ccccc1CCn1c(=O)c2ccccc2n(Cc2ccc(C(=O)NO)cc2)c1=O`, for which the Ratio IC50 was 869.
